In patent publication US20180185467A1 (Harvard, published 2018):

What was measured:
FLAG-14-3-3ε = biological target: T1, FLAG-14-3-3ε (UniProt P62258 1-255); experiment: GST pull-down in 293T cells, immunoblot
T1 construct: Expressed in 293T cells; also called FLAG-tagged 14-3-3ε; not shown: N-terminal FLAG tag (pEF-BOS vector)
T1 sequence: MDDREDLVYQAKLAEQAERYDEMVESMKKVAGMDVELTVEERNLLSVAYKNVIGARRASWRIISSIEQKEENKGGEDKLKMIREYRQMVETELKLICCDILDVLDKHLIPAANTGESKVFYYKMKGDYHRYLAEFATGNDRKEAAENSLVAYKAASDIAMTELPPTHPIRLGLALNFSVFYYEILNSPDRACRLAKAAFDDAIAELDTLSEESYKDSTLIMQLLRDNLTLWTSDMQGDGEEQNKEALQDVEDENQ

[1] = biological target: T2, bacterially-purified recombinant human 14-3-3ε protein (NP_006752.1) (human, UniProt P62258 1-255); experiment: in vitro binding assay on glutathione beads, immunoblot
T2 construct: also called recombinant (r) 14-3-3ε; r14-3-3ε
T2 sequence: T1 sequence

B1: GST (Glutathione S-transferase alone) (other)
chain: MSPILGYWKIKGLVQPTRLLLEYLEEKYEEHLYERDEGDKWRNKKFELGLEFPNLPYYIDGDVKLTQSMAIIRYIADKHNMLGGCPKERAEISMLEGAVLDIRYGVSRIAYSKDFETLKVDFLSKLPEMLKMFEDRLCHKTYLNGDHVTHPDFMLYDALDVVLYMDPMCLDAFPKLVCFKKRIEAIPQIDKYLKSSKYIAWPLQGWQATFGGGDHPPK
notes: Control; also called GST alone
B1: no binding (FLAG-14-3-3ε); no binding (tested: 10 µg/ml) [1].
